Source: PubChem BioAssay (National Center for Advancing Translational Sciences (NCATS))
In the library only some 13% were active in any assay of this set; here they are far more common.
Lamin A splicing: changes lamin A minigene splicing in HeLa cells; Potency, µM (series often up to 46.1 µM), hits mostly inhibitors; HeLa LMNA splicing GFP/RFP minigene ratio, 48 h; actives 0.01% (n = 200,000); active = well fitted inhibition curve with a large enough effect in the signal ratio, with a control signal flat, not every such curve was filed as active; inconclusive = small, poorly fitted or top-dose-only effect, or effect the other way, or a change in a side signal; the % refers to the signal ratio
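S3 HeLa stable clones carrying a lamin A-EGFP splicing minigene plus DsRed2 were seeded at 600 cells/well in Opti-MEM with 2% FBS, pin-dosed and incubated 48 h at 37°C. Acumen cytometry (488 nm) gave the GFP/RFP total-intensity ratio.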
miR-21 reporter: miR-21 reporter, rising signal; Potency, µM (top dose mostly 38.3 µM); 340,000 tested, under 10 active; HeLa miR-21 FLuc reporter, luciferase, 48 h; active = well fitted rising curve with a large enough effect; inconclusive = small, poorly fitted or top-dose-only effect; inactive = no such curve, though single readings can be large or run the other way;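 note: miR-21 action dims this reporter so a rising signal means less miR-21 action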
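Compounds were titrated across several concentrations (up to approximately 40 uM) and incubated 48 hours with HeLa miR-21-FLuc reporter cells (miR-21 target sequence downstream of FLuc, endogenous miR-21). Readout was firefly luciferase luminescence after lytic detection reagent.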
ALDH1A1 inh: blocks purified human ALDH1A1 activity; Purified ALDH1A1, NADH fluorescence, propionaldehyde substrate; Potency, µM (highest dose often 75.3 µM), usual class: inhibitors; actives 7.3% (n = 220,000); P00352; active = well fitted inhibition curve with a large enough effect, not every such curve was filed as active; inconclusive = small, poorly fitted or top-dose-only effect, or another doubt; inactive = no such curve, though single readings can be large or run the other way
Sfp PPTase inh: Sfp phosphopantetheinyl transferase inhibition; Biochemical Sfp PPTase activity, qHTS; Potency, µM, actives largely listed as inhibitors; actives 3.5% (n = 310,000);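 also: the enzyme is Sfp with the accession as filed and its product quenches rhodamine fluorescence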
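Buffer: 50 mM Hepes-Na pH 7.6, 10 mM MgCl2, 0.01% Nonidet P-40, 0.01% BSA. Enzyme 15 nM, pre-exposed to compound 15 min; substrates then added and fluorescence change tracked over 30 min.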
G9a inh: G9a (human) methyltransferase inhibition. G9a H3K9 monomethylation, AlphaScreen, 2 h. Potency, µM (top dose mostly 102 µM), usual class: inhibitors. actives 8.8% (n = 350,000); also: nearly all actives have a fitted effect of over 75% in size
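Methyltransferase reactions run at room temperature for 2 h (20 nM enzyme, 500 nM biotin-H3K9 peptide, 20 uM SAM) after a 15 min compound preincubation; product detected by AlphaScreen beads and anti-H3K9me1 antibody.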
KDM4E inh: inhibitors of human JMJD2E histone demethylase; B2RXH2; JMJD2E catalytic domain, FDH-coupled NADH fluorescence (FDH is formaldehyde dehydrogenase); Potency, µM (doses to about 57.1 µM), most hits filed as inhibitors; actives 1.6% (n = 230,000); active = well fitted inhibition curve with a large enough effect, not every such curve was filed as active; inconclusive = small, poorly fitted or top-dose-only effect, or another doubt; inactive = no such curve, though single readings can be large or run the other way; also: nearly all actives have a fitted effect of over 50% in size
Numbers stand for hits; – = inactive; ? = inconclusive; · = not tested or not shown; [ ] = remark or other dose. Unless noted, calls follow the shape of the dose curve; as a rule, active = well fitted curve in the direction sought with a large enough effect; inconclusive = small, poorly fitted or top-dose-only effect, or another doubt; inactive = no such curve, though single readings can be large; an effect the other way counts as inactive or inconclusive.

SMILES	Lamin A splicing	miR-21 reporter	ALDH1A1 inh	Sfp PPTase inh	G9a inh	KDM4E inh
FC(F)(F)c1ccccc1-c1nc(NCc2cccs2)c2ccccc2n1	?	·	?	–	–[0.501 µM]	·
CC(=O)c1ccc(NC(=O)C2C3C=CC(O3)C2C(=O)O)cc1 (stereo unspecified)	·	–	·	–	?	·
CCCOC(=O)c1ccc(NC(=O)C2C3C=CC(O3)C2C(=O)O)cc1 (stereo unspecified)	–	–	1.78µM	79.4µM	14.1µM	–
CC(C)OC(=O)c1cc(NC(=O)C2C3C=CC(O3)C2C(=O)O)cc(C(=O)OC(C)C)c1 (stereo unspecified)	·	–	·	–	50.1µM	·
COc1ccc(NC(=O)C2C3C=CC(O3)C2C(=O)O)cc1 (stereo unspecified)	·	–	·	–	39.8µM	·
CCCOC(=O)c1ccc(NC(=O)Oc2ccccc2)cc1	–	–	25.1µM	–	?	–
COc1ccc(Nc2nnc(-c3ccc(C)c(S(N)(=O)=O)c3)c3ccccc23)cc1	·	–	·	·	–	·
COc1ccc(C(=O)CN2C3=NCCCN3c3ccccc32)cc1OC	–	–	–	–	44.7µM	–
Cc1ccc(S(=O)(=O)Nc2cc(C)c(O)c(Sc3n[nH]c(C)n3)c2)cc1	·	–	·	70.8µM	7.08µM	·
Cc1cccc(NC(=O)CSc2nc3ccccc3nc2N2CCOCC2)c1C	·	–	·	·	–	·
CN(C)c1cc(NC(=O)CNC(C)(C)CC(C)(C)C)c2ccccc2n1	?	–	?	–	8.91µM	?
CN(C)c1cc(NC(=O)CN2CCCC2)c2ccccc2n1	·	–	·	?	17.8µM	?
O=C(CN1CCOCC1)Nc1c2c(nc3ccccc13)N(Cc1ccccc1)CC2	–	–	?	–	?	?
O=C(CN1CCCC1)Nc1c2c(nc3ccccc13)N(Cc1ccccc1)CC2	–	–	?	14.1µM	?	?
Cn1cc(/C=N\O)nc2c(=O)n(-c3ccccc3)c(=O)nc1-2	?	–	?	–	?	?
O=C(CSc1nnc(CNC(=O)c2cccs2)o1)Nc1ccccc1C(F)(F)F	·	–	·	–	–	·
OCCCNCc1ccncc1	·	·	–[13.5 µM]	·	·	·
Cc1ccc(C)c(Cc2c(C)nc3c(C(=O)N4CCOCC4)cnn3c2C)c1	–	–	?	89.1µM	–	?
COC(=O)c1cnn2c(C)c(Cc3cccc(F)c3)c(C)nc12	–	–	?	–	–	3.55µM
Cc1ccccc1Cc1c(C)nc2nc(SCC(=O)NCc3ccco3)nn2c1C	–	–	?	–	·	–
Cc1nc2c(C(=O)O)cnn2c(C)c1Cc1ccccc1	–	–	·	·	–	·
Cc1nc2c(C(=O)N3CCCC3)cnn2c(C)c1Cc1c(F)cccc1Cl	–	–	?	–	–	?
CCOC(=O)N1CCN(C(=O)c2cnn3c(C)c(Cc4ccc(C)cc4)c(C)nc23)CC1	–	–	25.1µM	–	–	–
Cc1ccccc1Cc1c(C)nc2c(C(=O)NCc3ccco3)cnn2c1C	?	–	?	50.1µM	?	?
C[C@@H](NC(=O)c1nc[nH]c1C(=O)NCc1ccccc1)c1ccccc1	·	·	·	·	–[2.33 µM]	·
SMILES	Lamin A splicing	miR-21 reporter	ALDH1A1 inh	Sfp PPTase inh	G9a inh	KDM4E inh
COc1ccc(N2C(=O)C(CC(N)=O)N(NC(=O)CCc3ccccc3)C2=O)cc1 (stereo unspecified)	·	–	–	–	–	–
COc1ccc(CCNC(=O)c2ccc(OCC(=O)N3CCOCC3)c(OC)c2)cc1	·	·	·	·	8.91µM	·
COc1ccc(S(=O)(=O)N(C)C)cc1NC(=O)c1ccc(OCC(=O)N2CCOCC2)c(OC)c1	·	·	·	·	50.1µM	·
COc1ccc(CCNC(=O)c2ccc(OCC(=O)N3CCOCC3)c(OC)c2)cc1OC	·	–	·	–	·	·
O=C1CC(C(=O)N(c2ccc(F)cc2)C(C(=O)NC2CCCC2)c2ccccn2)CS1 (stereo unspecified)	–	–	–	–	–	–
O=C1CC(C(=O)N(c2cccc(F)c2)C(C(=O)NC2CCCC2)c2ccccn2)CS1 (stereo unspecified)	–	–	10µM	–	–	–
COc1ccc(CNC(=O)C2CC(=O)N(C3CCCC3)C2)cc1 (stereo unspecified)	·	–	·	–	·	·
O=C(N/N=C/C=C/c1ccccc1)c1cccs1	–	–	–	–	–	–
CC(/C=N/NC(=O)c1cccs1)=C\c1ccco1	–	–	7.94µM	–	?	?
